“And” between values parts separate entries of the source, which are not always exact repeats. Identical values can stand only once.
What was measured:
[1] = biological target: T1, 5-HT1A (Rattus norvegicus, UniProt P19327); test: Duration of action in the Fixed Responding Model; conditions: Control + 8-OH-DPAT 0.3 mg/kg sc (no antagonist); one control group under each test compound
[2] = biological target: T1, 5-HT1A; test: Fixed Responding Model, in vivo 5-HT1A antagonism of 8-OH-DPAT-induced decrease in response rate; set-up: from tissue; host or cells: whole animal (rat), behavioural model; species or system rats; conditions: 8-OH-DPAT (0.3 mg/kg sc) alone; vehicle control 2.4 ± 0.5
Procedure: The ability of the compounds to function in vivo as 5-HT1A antagonists was assessed in rats using a Fixed Responding Model (D. Blackman, in “Operant Conditioning: An Experimental Analysis of Behavior”, J. Butcher, ed., Methuen and Co., Ltd., London). In this model rats are trained to respond (lever pressing) under a fixed-ratio 30 schedule of food presentation in order to receive a food pellet reinforcer. Administration of the 5-HT1A agonist 8-OH-DPAT reduces the control response rate (assessed by administration of vehicle placebo). The 5-HT1A antagonist activity of a test compound is determined by measuring its ability to antagonize this agonist-induced decrease in response rate. […] Thus, compounds of the present invention function as 5-HT1A antagonists in vivo.

The chains behind the UniProt entries cited, without tags or fusion partners.
UniProt P19327, whole entry: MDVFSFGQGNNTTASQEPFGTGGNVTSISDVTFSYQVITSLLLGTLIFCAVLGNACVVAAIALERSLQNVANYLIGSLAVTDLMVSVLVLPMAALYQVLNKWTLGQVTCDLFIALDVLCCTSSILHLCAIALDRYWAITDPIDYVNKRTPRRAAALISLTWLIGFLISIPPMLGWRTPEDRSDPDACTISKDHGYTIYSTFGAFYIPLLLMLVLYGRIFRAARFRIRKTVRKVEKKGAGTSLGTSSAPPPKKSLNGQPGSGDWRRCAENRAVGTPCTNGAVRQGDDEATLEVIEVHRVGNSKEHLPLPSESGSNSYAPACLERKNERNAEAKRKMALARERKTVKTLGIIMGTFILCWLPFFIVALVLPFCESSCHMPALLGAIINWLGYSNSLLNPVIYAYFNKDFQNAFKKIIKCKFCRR

Compound: CCCN(CCC)C1CCc2cccc(O)c2C1 (centres unmarked) [8-OH-DPAT, reference compound]
- % Response Rate, 0.5 hour pretreatment [1]: 21 ± 9% and 29 ± 6% and 23 ± 9%
- Response Rate [2]: 0.5 ± 0.2 responses/second
